# High-throughput results: PubChem, several laboratories
# In the library only some 4.2% were active in any assay of this set; here they are far more common.
# MC4R antag cAMP: human MC4R antagonism in cAMP assay; P32245; AID 540295; 360,000 compounds, 0.48% hits; inhibition, % at 6.5 µM; MC4R-expressing cells, MTII-stimulated cAMP, LANCE TR-FRET;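 active = inhibition above its plate's cutoff, the mean of tested wells on that plate plus 3 SD, cut at about 29% in these data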;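 note: 0% = Melanotan II alone and 100% = Melanotan II plus saturating MCL0020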
#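 Assay system: U2OS cells stably expressing human melanocortin 4 receptor (MC4R) / Dosing: 6.5 µM / Timing: compound 30 min, challenge 1 h, detection 1 h / Measured by: Eu-cAMP/anti-cAMP TR-FRET, emission 671 nm / Replicates: singlicate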
# MC4R barr agon: activates human MC4R beta-arrestin recruitment. U2OS MC4R beta-arrestin complementation, luminescence; percent of melanotan II response, DMSO zero. activation, % at 8.9 µM. 360,000 compounds, 0.98% hits;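 active = activation above a per-plate cutoff, the mean activation of sample wells on that plate plus 3 SD, cut at about 8% in these data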
# ALR H2O2 inh: inhibitors of human ALR sulfhydryl oxidase, primary screen, biochemical, H2O2 detection, HRP-luminol luminescence, single point. 290,000 compounds, 3.8% hits. inhibition, % (concentration not given with the values). purified ALR, DTT oxidation. AID 485317, 2010;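 active means mean and each replicate at 75% or more; inconclusive means only one of the two met; inactive means neither met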;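 further: stock transfer was 7.5 nL into about 7.5 µL; 0% = neutral wells and 100% = wells with inactivated enzyme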
# HDAC3 inh: blocks human histone deacetylase 3; O15379; recombinant HDAC3, fluorogenic peptide/trypsin coupled, fluorescence; inhibition, % at 8.3 µM; 320,000 compounds, 0.15% hits; AID 2718; in the data active = inhibition above about 26%, passing the limit was not always enough; inconclusive = no clear call, values can overlap the other calls
# NALP1 inh: NALP1 inhibition | 280,000 compounds, 0.61% hits | inhibition, % at 10 µM | S. cerevisiae NALP1/ASC/caspase-1 growth, X-gal OD620, 72 h | AID 2071; in the data active = inhibition mostly above about 24%, no sharp cut-off; inactive = mostly below about 32%
# Yeast UUG start: yeast start codon fidelity modulation; activity score, % at 18.7 µM; actives 0.13% (n = 350,000); S. cerevisiae UUG-firefly luciferase reporter, luminescence/redox ratio; AID 602363;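 active means replicate mean at a twofold rise or more, about +100% in these data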;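 further: firefly luciferase made from a UUG start codon reports start codon fidelity; reporter light over untreated wells divided by growth signal over untreated wells; some hits fall short of that in this replicate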
# An asterisk follows results filed as active; u = inconclusive; x = no result.
cpd	Compound	MC4R antag cAMP	MC4R barr agon	ALR H2O2 inh	HDAC3 inh	NALP1 inh	Yeast UUG start
1	C[C@H](CO)N1C[C@H](C)[C@H](CN(C)Cc2ccccc2)Oc2ccc(NC(=O)Nc3ccc4c(c3)OCO4)cc2CC1=O	x	x	x	x	x	4
2	COCC(=O)N[C@@H]1C=C[C@H](CC(=O)NCc2ccccc2OC)O[C@@H]1CO	x	x	x	x	x	-1
3	Cc1ccc(NCc2nnc(SCC(=O)NCc3ccco3)n2CC2CCCO2)c(C)c1 (stereo not given)	-3	-2	72	1	-4	-7
4	Cc1ccc(NCc2nnc(SCC(=O)N3CCCCC3)n2CC2CCCO2)c(C)c1 (stereo not given)	4	-2	92*	0	x	-6
5	COc1ccc(-n2nnnc2SCc2nc3ccccc3s2)cc1	12	0	93*	1	1	-26
6	COc1ccc(C)cc1-n1nnnc1SCc1nc2ccccc2s1	11	-3	-6	3	14	-20
7	CCn1c(SCc2nc3ccccc3s2)nnc1-c1ccccc1	-3	-1	94*	7	-22	-18
8	Cc1nnc(SCc2nc3ccccc3s2)n1-c1ccccc1	15	2	-131	-5	5	-26
9	C/C=C/c1ccc2c(c1)O[C@H](CN(C)C(=O)NCCC)[C@H](C)CN([C@@H](C)CO)S2(=O)=O	x	x	x	x	x	12
10	CC(=O)N(C)C[C@@H]1Oc2cc(-c3ccccc3C)ccc2S(=O)(=O)N([C@H](C)CO)C[C@@H]1C	x	x	x	x	x	-3
11	O=S(=O)(c1ccc(Cl)nc1)N1CCC(Cc2ccccc2)CC1	17	2	99*	6	x	-23
12	O=S(=O)(c1ccc(Cl)s1)N1CCC(Cc2ccccc2)CC1	14	0	97*	7	40*	-9
13	COc1ccc(CNC(=O)C[C@H]2CC[C@@H](NC(=O)Nc3ccc4c(c3)OCO4)[C@H](CO)O2)cc1	x	x	x	x	x	-19
14	C=C(CC)C(=O)c1ccc(OCC(=O)O)c(Cl)c1Cl	5	-2	44	-2	78*	-4
15	Clc1ccc(CSc2nnc(-c3ccncc3)s2)cc1	3	0	-22	-2	2	-9
16	Clc1cccc(Cl)c1CSc1nnc(-c2ccncc2)s1	7	31*	-7	-2	2	x
17	COc1cc(/C=C2/C(=O)N(c3cccc(Br)c3)N=C2C)cc(OC)c1O	25	-1	92*	1	9	-13
18	CC1=NN(c2ccccc2)C(=O)/C1=C/c1cccc(C)c1	9	-1	94*	-1	12	-14
19	COc1cc(/C=C2/C(=O)N(c3ccc(Br)cc3)N=C2C)cc([N+](=O)[O-])c1O	x	x	-9	-5	-26	x
20	C[C@@H]1CN([C@H](C)CO)C(=O)c2cc(NS(=O)(=O)c3ccc(Cl)cc3)ccc2O[C@@H]1CN(C)Cc1ccc(Cl)c(Cl)c1	x	x	x	x	x	12
21	CCN(C[C@H]1N[C@H](CO)[C@H]1c1ccc(-c2ccccc2)cc1)C(=O)COC	x	x	x	x	x	2
22	COCC(=O)Nc1ccc2c(c1)C(=O)N(C)[C@@H]1CC[C@@H](CC(=O)NCCc3ccncc3)O[C@H]1CO2	x	x	x	x	x	-1
23	CCOc1ccc(/C=N/Nc2nc(=O)[nH]nc2C)cc1OC	-14	0	0	12	-7	-14
24	COc1cc(/C=N/Nc2nc(=O)[nH]nc2C)cc(OC)c1O	-17	-3	93*	5	-4	x
25	CCOc1cc(/C=N/Nc2nc(=O)[nH]nc2C)ccc1O	-18	-2	99*	u	-24	-25

# Given field by field: part of the list above
12. O=S(=O)(c1ccc(Cl)s1)N1CCC(Cc2ccccc2)CC1
  MC4R antag cAMP: 14
  MC4R barr agon: 0
  ALR H2O2 inh: 97*
  HDAC3 inh: 7
  NALP1 inh: 40*
  Yeast UUG start: -9

13. COc1ccc(CNC(=O)C[C@H]2CC[C@@H](NC(=O)Nc3ccc4c(c3)OCO4)[C@H](CO)O2)cc1
  MC4R antag cAMP: x
  MC4R barr agon: x
  ALR H2O2 inh: x
  HDAC3 inh: x
  NALP1 inh: x
  Yeast UUG start: -19

# The list continues.
cpd	Compound	MC4R antag cAMP	MC4R barr agon	ALR H2O2 inh	HDAC3 inh	NALP1 inh	Yeast UUG start
26	C[C@@H]1CN([C@H](C)CO)C(=O)c2cc(C#CC3(O)CCCC3)cnc2O[C@H]1CN(C)S(=O)(=O)c1ccccc1	x	x	x	x	x	-6
27	O=C1N/C(=N/O)S/C1=C\c1ccccc1-n1cccn1	-5	-2	93*	6	-6	x
28	O=C(CN1CCN(S(=O)(=O)c2ccc(Br)cc2)CC1)N/N=C/c1ccc(Br)s1	-5	9.0*	-10	3	-10	x
29	Cc1ccc(S(=O)(=O)N2CCN(CC(=O)N/N=C\c3ccc(O)c(O)c3)CC2)cc1	1	1	99*	7	x	3
30	Cc1ccc(/C=N/NC(=O)CN2CCN(S(=O)(=O)c3ccc(Br)cc3)CC2)s1	3	0	8	6	4	x
31	CN(C)C(=O)c1cccc(-c2ccc3c(c2)[C@H]2[C@H](CCN2C(=O)c2ccncc2)[C@@H](CO)N3C)c1	x	x	x	x	x	2
32	O=C(CNc1ccc2ccccc2c1)N/N=C/c1ccc([N+](=O)[O-])o1	-9	11*	-14	-3	27	-4
33	O=C(COc1ccccc1)N/N=C/c1ccc([N+](=O)[O-])o1	0	0	-32	1	21	x
34	CCNc1ccc(S(=O)(=O)N(C)C)cc1NCC(=O)Nc1ccccc1F	7	0	99*	-4	20	x
35	O=C(CCn1cnnn1)N1CCCC(Nc2ccc(F)cc2)C1 (stereo not given)	-7	-2	98*	-3	-21	-14
36	O=C(CCN1CCCCO1)N1CCCC(Nc2cccc(F)c2)C1 (stereo not given)	4	-4	64	4	9	-9
37	CC(C)c1ccc(NC2CCCN(C(=O)CCN3CCOCC3)C2)cc1 (stereo not given)	4	-1	55	3	19	0
38	O=C(CCN1CCCCO1)N1CCCC(Nc2ccc(F)cc2)C1 (stereo not given)	1	0	95*	-21	-1	-15
39	O=C(c1ccc(Cn2cnnn2)cc1)N1CCCC(Nc2ccc(F)cc2)C1 (stereo not given)	6	-1	65	0	7	-13
40	O=C(CCCn1cncn1)N1CCCC(Nc2ccc(F)cc2)C1 (stereo not given)	-2	-2	98*	-9	6	-13
41	CC(C)c1ccc(NC2CCCN(C(=O)CCCn3cncn3)C2)cc1 (stereo not given)	1	0	96*	-1	-2	-24
42	C[C@@H]1CN([C@H](C)CO)C(=O)Cc2cc(NC(=O)Cc3ccccc3)ccc2O[C@@H]1CN(C)S(=O)(=O)c1cn(C)cn1	x	x	x	x	x	-26
43	O=C(Cn1cccn1)N1CCCC(Nc2ccc(F)c(F)c2)C1 (stereo not given)	9	0	89*	0	5	-14
44	CC(Oc1ccccc1)C(=O)Nc1ccccc1O (stereo not given)	-6	-2	90*	-6	4	-13
45	CCOc1cc(/C=N/Nc2nnc(C)n2N)ccc1O	-2	-1	99*	0	-27	-29
46	CCOc1cc(/C=N\n2nnnc2N)ccc1O	-5	-2	99*	0	4	-13
47	CCOc1cc(/C=N/NC(=O)C(=O)N/N=C/c2ccc(O)c(OCC)c2)ccc1O	5	1	12	-5	22	-3
48	CCOc1cc(/C=N/Nc2ncnc(Cl)c2N)ccc1O	-35	0	99*	2	6	-17
49	Nc1c(Cl)ncnc1N/N=C/c1ccccn1	x	x	50	10	94*	x

# In the list so far, three contain a nitro group on carbon:
cpd	Compound	MC4R antag cAMP	MC4R barr agon	ALR H2O2 inh	HDAC3 inh	NALP1 inh	Yeast UUG start
19	COc1cc(/C=C2/C(=O)N(c3ccc(Br)cc3)N=C2C)cc([N+](=O)[O-])c1O	x	x	-9	-5	-26	x
32	O=C(CNc1ccc2ccccc2c1)N/N=C/c1ccc([N+](=O)[O-])o1	-9	11*	-14	-3	27	-4
33	O=C(COc1ccccc1)N/N=C/c1ccc([N+](=O)[O-])o1	0	0	-32	1	21	x
